The chains behind the UniProt entries cited, without tags or fusion partners. Where a name states a change or a piece, a line headed by the entry shows the natural chain unless it says otherwise.
UniProt P39662: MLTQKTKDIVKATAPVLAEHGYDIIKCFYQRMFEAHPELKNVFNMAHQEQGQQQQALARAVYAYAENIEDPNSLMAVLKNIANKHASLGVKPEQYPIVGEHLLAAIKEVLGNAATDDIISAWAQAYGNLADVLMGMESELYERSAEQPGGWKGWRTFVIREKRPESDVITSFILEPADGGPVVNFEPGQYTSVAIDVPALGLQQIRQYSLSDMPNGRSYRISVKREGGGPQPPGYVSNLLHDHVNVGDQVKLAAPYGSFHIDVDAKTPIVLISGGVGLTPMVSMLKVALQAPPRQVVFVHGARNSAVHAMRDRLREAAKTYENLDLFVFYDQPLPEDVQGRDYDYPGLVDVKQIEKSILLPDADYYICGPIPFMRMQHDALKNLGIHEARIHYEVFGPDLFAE

According to US20080008771A1, “Nitric Oxide Dioxygenase Inhibitors” (priority 2004, published 2008):

Target: A. eutrophus flavohemoglobin (Cupriavidus necator, UniProt P39662)

Clc1ccc(COC(Cn2ccnc2)c2ccc(Cl)cc2Cl)cc1 (centres unmarked) [econazole]
Fraction inhibited as percentage of total activity, first (major) phase: (˜70%) | Fraction inhibited as percentage of total activity, second (minor) phase: (˜30%)
